Experimental data from published antibiotic growth screens (doi:10.1038/s41589-023-01349-8).
Some of the results follow.

Test system: A. baumannii ATCC 17978
Experiment: relative growth (fraction of control); higher = less inhibition
Details: 50 µM

Row | SMILES | relative growth
1 | Cn1c(=O)oc2cc(S(=O)(=O)N3CCC[C@H](C(=O)NN4CCOCC4)C3)ccc21 | 1.11
2 | CCOC(=O)Nc1ccc(NCc2ccc(F)cc2)nc1N.O=C(O)/C=C\C(=O)O | 1.12
3 | COc1ccc(C[C@H](N)C(=O)N[C@@H]2[C@@H](CO)OC(n3cnc4c(N(C)C)ncnc43)[C@@H]2O)cc1.Cl.Cl (some centres not stated) | 0.412
4 | CCCCN1CCCCC1C(=O)Nc1c(C)cccc1C.Cl (configuration not stated) | 1.13
5 | Cc1[nH]c(SCCC(=O)O)nc(=O)c1C | 0.898
6 | CN1CCN(C(=O)C[C@H]2CC[C@H]3[C@@H](COC[C@@H](O)CN3Cc3ccc4c(c3)OCO4)O2)CC1 | 1.04
7 | C[C@H](CO)N1C[C@H](C)[C@H](CN(C)Cc2ccccc2F)Oc2cc(C#CC3CC3)ccc2S1(=O)=O | 1.03
8 | O=C(C[C@@H]1CC[C@H]2[C@@H](COC[C@@H](O)CN2C(=O)Nc2cc(Cl)cc(Cl)c2)O1)N1CCOCC1 | 1.1
9 | C[C@@H]1CN([C@@H](C)CO)S(=O)(=O)c2ccc(C#Cc3ccncc3)cc2O[C@H]1CN(C)C(=O)c1ccncc1 | 1.08
10 | C[C@@H]1CN(c2c(F)c(F)c3c(=O)c(C(=O)O)cn(C4CC4)c3c2F)C[C@H](C)N1 | 0.142
11 | C[C@@H]1CN([C@@H](C)CO)S(=O)(=O)c2ccc(-c3cccnc3)cc2O[C@H]1CN(C)C(=O)NC1CCCCC1 | 0.927
12 | Cc1c(/C=N/O)sc2ccccc12 | 0.727
13 | CCCNC(=O)N1C[C@@H](O)COC[C@@H]2O[C@H](CC(=O)NCc3ccncn3)CC[C@H]21 | 0.833
14 | CC[C@]12CCCN3CCc4c(n(c5ccccc45)[C@@](O)(C(=O)OC)C1)[C@@H]32 | 0.933
15 | CCSc1nnc2c(=O)[nH]c(=O)[nH]c2n1 | 0.886
16 | COc1ccc(CCNC(=O)[C@@H]2c3ccccc3C(=O)N(CC34CC5CC(CC(C5)C3)C4)[C@H]2c2ccc(CO)cc2)cc1 | 1.15
17 | CC(C)CC#Cc1ccc2c(c1)O[C@H](CN(C)C(=O)Cc1cccnc1)[C@@H](C)CN([C@@H](C)CO)S2(=O)=O | 0.917
18 | COC(=O)Cn1c(Cl)nc2c1c(=O)n(C)c(=O)n2C | 0.936
19 | Cc1[nH]c2ncnn2c(=O)c1NS(C)(=O)=O | 0.978
20 | O/N=C/c1c(Cl)cccc1Cl | 0.995
21 | COc1ccnc(CS(=O)c2nc3cc(OC(F)F)ccc3[nH]2)c1OC (configuration not stated) | 1.11
22 | O=c1c(O)c(-c2ccccc2)oc2cc(O)cc(O)c12 | 1.03

Row | SMILES | relative growth
23 | COc1ccc(-c2coc3cc(O)cc(OC)c3c2=O)cc1 | 1.03
24 | CC(=O)NCc1nnnn1-c1ccc(C)cc1 | 1.02
25 | Nc1no[n+]([O-])c1-c1ccccc1 | 0.917
26 | C[C@@H](CCO)Nc1nc2c([nH]1)c(=O)n(C)c(=O)n2C | 0.937
27 | C[C@H](CO)N1C[C@H](C)[C@H](CN(C)C(=O)c2ccccn2)Oc2cc(C#Cc3ccccc3)ccc2S1(=O)=O | 0.887
28 | O=C(C[C@H]1CC[C@@H]2[C@H](COC[C@H](O)CN2C(=O)c2ccc(F)cc2)O1)NCCCN1CCOCC1 | 0.915
29 | c1cn(-c2ccc(-n3ccnc3)nn2)cn1 | 1.02
30 | C=CCc1ccc(O[C@@H]2O[C@H](CO[C@@H]3O[C@@H](C)[C@H](O)[C@@H](O)[C@H]3O)[C@@H](O)[C@H](O)[C@H]2O)c(O)c1 | 0.992
31 | CC(=O)N(C)C[C@@H]1Oc2cc(C#CCN(C)C)ccc2S(=O)(=O)N([C@@H](C)CO)C[C@H]1C | 0.907
32 | C[C@H]1CN([C@@H](C)CO)C(=O)Cc2cc(NC(=O)Nc3cc(Cl)cc(Cl)c3)ccc2O[C@H]1CN(C)S(=O)(=O)c1ccc(Oc2ccccc2)cc1 | 0.918
33 | Cc1ccccc1NCC(=O)NN | 0.95
34 | CCOC(=O)c1cn2cn[nH]c2nc1=O | 0.947
35 | CCCCOc1ccc(CC(=O)NO)cc1 | 1.09
36 | O=C(C[C@H]1C=C[C@H](NC(=O)CN2CCOCC2)[C@@H](CO)O1)NC1CCC1 | 1.03
37 | CC(C)CNC(=O)C(=O)NC[C@H]1OCCN1S(=O)(=O)c1ccc2c(c1)OCCO2 | 1.01
38 | CN(C)Cc1cn(CC[C@@H]2CC[C@H](N)[C@H](CO)O2)nn1 | 1.01
39 | NC[C@H]1CC[C@H](C(=O)O)CC1 | 0.93
40 | Oc1c(Cl)cc(Cl)cc1Sc1cc(Cl)cc(Cl)c1O | 0.243
41 | COc1ccc(-c2cnc3c(c2)C(=O)N([C@@H](C)CO)C[C@@H](C)[C@@H](CN(C)C(=O)Cc2cccnc2)O3)cc1 | 1.06
42 | COc1ccc(NC(=O)[C@H]2[C@@H](c3ccc(C)cc3)CC(=O)N2C(=O)OCc2ccccc2)c2ncccc12 | 1.04
43 | NCC[C@@H](O)C(=O)N[C@@H]1C[C@H](N)[C@@H](O[C@H]2O[C@H](CN)[C@@H](O)[C@H](O)[C@H]2O)[C@H](O)[C@H]1O[C@H]1O[C@H](CO)[C@@H](O)[C@H](N)C1O.O (some centres not stated) | 0.16
44 | O=C1CCOCCN1 | 0.981

Row | SMILES | relative growth
45 | c1cncc(-c2nc3ccc4ccccc4c3c3c2CCCC3)c1 | 0.812
46 | CCC(=O)n1ccc(C(=O)N2CCOCC2)n1 | 1.09
47 | C[C@@H]1CN([C@H](C)CO)C(=O)CCCn2cc(nn2)CO[C@H]1CN(C)C(=O)Nc1ccnc(N2CCOCC2)c1 | 0.974
48 | CO[C@H]1CN(C)C(=O)c2ccc(NS(C)(=O)=O)cc2OC[C@@H](C)N(C(=O)CN(C)C)C[C@H]1C | 1.02
49 | CCOC(=O)C(C#N)C1=NCCC1 (configuration not stated) | 1.07
50 | O=C(C[C@@H]1CC[C@@H]2[C@H](COC[C@@H](O)CN2C(=O)Nc2cccc(F)c2)O1)NCCCN1CCOCC1 | 0.85
51 | Cc1scc2c1N(C(=O)CN1CCN(C)CC1)c1ccccc1NC2=O.Cl | 0.386
52 | O=C(N[C@H]1CC[C@H](CCNS(=O)(=O)c2ccccc2)O[C@@H]1CO)c1cnccn1 | 0.86
53 | Cl.O=C(COc1ccc(Cl)cc1)N1CCN(Cc2ccc3c(c2)OCO3)CC1 | 0.877
54 | C[C@@H]1CN([C@H](C)CO)S(=O)(=O)c2ccc(-c3ccccc3F)cc2O[C@H]1CN(C)S(C)(=O)=O | 0.838
55 | Nc1cccn2ncnc12 | 0.948
56 | C=CC(C1=CC(=O)C(OC)=CC1=O)c1ccc(O)cc1 (configuration not stated) | 1.08
57 | CC(C)c1c(C(=O)c2ccccc2)c(-c2ccccc2)c(-c2ccc(F)cc2)n1CC[C@@H](O)C[C@@H](O)CC(=O)O | 0.849
58 | CO[C@H]1CN(C)C(=O)c2cc(NS(=O)(=O)CC(F)(F)F)ccc2OC[C@H](C)N(C(=O)c2ccc3c(c2)OCO3)C[C@H]1C | 1.02
59 | O=C(C[C@H]1CC[C@H]2[C@@H](COC[C@H](O)CN2C(=O)Nc2cccc(F)c2)O1)NCCCN1CCOCC1 | 0.98
60 | CN(C)CC(=O)N[C@H]1CC[C@@H](CCNC(=O)C2CCC2)O[C@H]1CO | 0.965
61 | O=C(O)/C=C/C=C/c1ccc2c(c1)OCO2 | 1.11
62 | NC(=O)NCC#Cc1ccc2c(c1)[C@]1(C(=O)N2)[C@H](C(=O)N2CCCCCCC2)[C@H]2C(=O)O[C@H](c3ccccc3)[C@H](c3ccccc3)N2[C@@H]1c1ccc(O)cc1 | 1.05
63 | C(=C\c1ccncc1)/c1ccncc1 | 0.88
64 | O=C(/C=C/c1ccc(O)cc1)c1ccccc1 | 0.864
65 | COc1ccccc1S(=O)(=O)N[C@H]1C=C[C@H](CC(=O)N2CCN(C)CC2)O[C@@H]1CO | 1.04
66 | Cc1cccc(N2C[C@@H](CN)OC2=O)c1 | 0.982

Row | SMILES | relative growth
67 | O=C(N[C@H]1CC[C@@H](CCNS(=O)(=O)c2ccccc2)O[C@@H]1CO)c1cnccn1 | 1.07
68 | Cc1ccccc1S(=O)(=O)N1C[C@@H](O)COC[C@H]2O[C@H](CC(=O)N3CCN(C)CC3)CC[C@@H]21 | 1.13
69 | CCOc1ccc(Cc2cc([C@@H]3O[C@H](CO)[C@@H](O)[C@H](O)[C@H]3O)ccc2Cl)cc1 | 1.03
70 | COc1ccc(CN(CCN(C)C)c2ncccn2)cc1.Cl | 0.932
71 | COCCOC(=O)N1C(=O)[C@@]2(c3cc(C#Cc4ccc(OC)cc4)ccc31)[C@H](c1ccccc1OCCO)N1[C@H](c3ccccc3)[C@H](c3ccccc3)OC(=O)[C@H]1[C@@H]2C(=O)NC[C@H](O)c1ccccc1 | 1.17
72 | CCCNC(=O)C[C@H]1CC[C@H]2[C@@H](COC[C@@H](O)CN2S(=O)(=O)c2ccc(Oc3ccccc3)cc2)O1 | 1.05
73 | Oc1cc(O)c2c(c1)O[C@H](c1cc(O)c(O)c(O)c1)[C@H](O)[C@H]2c1c(O)cc(O)c2c1O[C@H](c1cc(O)c(O)c(O)c1)[C@H](O)[C@H]2c1c(O)cc(O)c2c1O[C@H](c1cc(O)c(O)c(O)c1)[C@H](O)C2 | 1
74 | C[C@@H]1CN([C@H](C)CO)C(=O)c2cc(-c3ccc(C(=O)N(C)C)cc3)cnc2O[C@H]1CN(C)C(=O)CN(C)C | 0.946
75 | N#CCN(CC#N)C(=O)c1ccco1 | 0.862
76 | CC(C)N1C[C@@H](CO)CC1=O | 1.02
77 | O=C(C[C@@H]1CC=CCCC(=O)OC[C@H](Cc2c[nH]c3ccccc23)NC1=O)N[C@@H](CO)Cc1ccccc1 | 1.02
78 | C(=N\c1ccc2ccccc2c1)/Nc1ccc2ccccc2c1 | 0.271
79 | C=C(C)C1CC=C(C)CC1 (configuration not stated) | 1.01
80 | Cc1ccc(/C=c2\sc3ncnn3c2=O)o1 | 1.08
81 | CCn1[nH]c(N)c2c(=O)[nH]c(=O)cc1-2 | 0.889
82 | c1nc(N2CCOCC2)nc(N2CCOCC2)n1 | 0.999
83 | Cn1c(S(=O)(=O)CC(N)=O)nc2ccccc21 | 1.16
84 | Cn1c(=O)c2cc(S(=O)(=O)NCCC(=O)NC3CCCC3)ccc2n(C)c1=O | 1.04
85 | O=S(=O)(NCC[C@H]1CC[C@@H](NS(=O)(=O)c2ccccc2Cl)[C@@H](CO)O1)c1ccc(Cl)cc1 | 0.911
86 | CC(=O)[C@H]1CC[C@H]2[C@@H]3CC=C4C[C@@H](OC(=O)CCC(=O)O)CC[C@]4(C)[C@H]3CC[C@]12C | 1.24
87 | COc1ccc(-c2cc(=O)c3c(O)c(OC)c(O[C@H]4O[C@H](CO[C@@H]5O[C@@H](C)[C@H](O)[C@@H](O)[C@H]5O)[C@@H](O)[C@H](O)[C@H]4O)cc3o2)cc1 | 1.06
